Values of other authors, collected in patent US20230117831A1, “MULTI-FUNCTIONAL CHIMERIC MOLECULES” (THE BROAD INSTITUTE, INC., priority 2020, published 2023).

Protein sequences, listed by entry. Tags and fused reporters are not part of them. Lines headed by an entry give the natural chain unless they say otherwise; changes in a name come on top. Residues count along the entry.
UniProt P42336, whole entry: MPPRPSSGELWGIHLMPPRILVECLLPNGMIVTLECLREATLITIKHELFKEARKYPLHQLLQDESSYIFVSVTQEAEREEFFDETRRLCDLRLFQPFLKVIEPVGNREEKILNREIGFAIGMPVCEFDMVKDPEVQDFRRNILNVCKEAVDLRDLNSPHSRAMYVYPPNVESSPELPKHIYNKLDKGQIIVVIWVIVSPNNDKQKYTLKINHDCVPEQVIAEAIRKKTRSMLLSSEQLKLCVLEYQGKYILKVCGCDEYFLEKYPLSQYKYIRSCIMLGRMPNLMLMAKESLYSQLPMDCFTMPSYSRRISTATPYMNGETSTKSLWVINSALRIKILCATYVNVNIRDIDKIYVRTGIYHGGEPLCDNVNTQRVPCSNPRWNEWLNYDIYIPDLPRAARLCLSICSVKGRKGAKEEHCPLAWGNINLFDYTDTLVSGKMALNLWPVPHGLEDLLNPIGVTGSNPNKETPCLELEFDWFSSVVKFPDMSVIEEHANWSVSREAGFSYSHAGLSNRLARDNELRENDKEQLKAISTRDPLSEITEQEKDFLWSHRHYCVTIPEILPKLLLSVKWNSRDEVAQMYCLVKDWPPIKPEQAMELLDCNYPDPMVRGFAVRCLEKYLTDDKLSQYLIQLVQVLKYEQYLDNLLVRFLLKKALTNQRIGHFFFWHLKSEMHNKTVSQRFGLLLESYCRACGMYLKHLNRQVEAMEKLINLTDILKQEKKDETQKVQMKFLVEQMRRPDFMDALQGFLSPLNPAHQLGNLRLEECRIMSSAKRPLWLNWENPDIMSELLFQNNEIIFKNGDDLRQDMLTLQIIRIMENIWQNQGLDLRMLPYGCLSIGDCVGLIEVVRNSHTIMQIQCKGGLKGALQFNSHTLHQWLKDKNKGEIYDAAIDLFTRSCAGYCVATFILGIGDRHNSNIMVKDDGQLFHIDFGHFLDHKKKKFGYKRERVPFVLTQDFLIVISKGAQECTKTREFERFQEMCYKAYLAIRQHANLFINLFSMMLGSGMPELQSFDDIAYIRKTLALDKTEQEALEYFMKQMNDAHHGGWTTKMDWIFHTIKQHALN
UniProt O00329: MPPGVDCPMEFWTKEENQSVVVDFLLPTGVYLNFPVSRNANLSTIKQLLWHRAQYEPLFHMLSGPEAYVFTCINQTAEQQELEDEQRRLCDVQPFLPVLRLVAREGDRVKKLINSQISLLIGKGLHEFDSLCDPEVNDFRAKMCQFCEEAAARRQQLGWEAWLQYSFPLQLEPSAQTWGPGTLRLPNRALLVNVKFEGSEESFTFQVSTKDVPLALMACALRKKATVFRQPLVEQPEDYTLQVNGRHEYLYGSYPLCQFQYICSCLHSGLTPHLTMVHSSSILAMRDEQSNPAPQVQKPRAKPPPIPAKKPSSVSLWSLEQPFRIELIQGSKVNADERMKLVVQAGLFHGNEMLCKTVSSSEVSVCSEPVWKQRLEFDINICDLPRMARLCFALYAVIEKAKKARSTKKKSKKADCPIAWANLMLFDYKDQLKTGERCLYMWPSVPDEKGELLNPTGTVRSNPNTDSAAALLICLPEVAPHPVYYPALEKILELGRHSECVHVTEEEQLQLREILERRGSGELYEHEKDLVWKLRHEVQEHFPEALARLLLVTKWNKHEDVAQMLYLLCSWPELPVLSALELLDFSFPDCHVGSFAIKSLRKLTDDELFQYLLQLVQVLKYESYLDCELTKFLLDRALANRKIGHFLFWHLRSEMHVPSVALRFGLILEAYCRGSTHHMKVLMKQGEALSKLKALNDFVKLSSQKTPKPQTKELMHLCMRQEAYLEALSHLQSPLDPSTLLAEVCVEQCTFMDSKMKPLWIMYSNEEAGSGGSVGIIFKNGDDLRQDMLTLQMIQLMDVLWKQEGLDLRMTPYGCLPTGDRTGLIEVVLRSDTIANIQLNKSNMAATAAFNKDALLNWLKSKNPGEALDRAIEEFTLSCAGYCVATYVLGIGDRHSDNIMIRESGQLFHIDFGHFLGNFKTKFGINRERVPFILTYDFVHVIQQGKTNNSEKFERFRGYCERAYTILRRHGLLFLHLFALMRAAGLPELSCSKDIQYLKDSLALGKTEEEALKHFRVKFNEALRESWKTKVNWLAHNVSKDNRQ
UniProt Q16539, whole entry, species assumed: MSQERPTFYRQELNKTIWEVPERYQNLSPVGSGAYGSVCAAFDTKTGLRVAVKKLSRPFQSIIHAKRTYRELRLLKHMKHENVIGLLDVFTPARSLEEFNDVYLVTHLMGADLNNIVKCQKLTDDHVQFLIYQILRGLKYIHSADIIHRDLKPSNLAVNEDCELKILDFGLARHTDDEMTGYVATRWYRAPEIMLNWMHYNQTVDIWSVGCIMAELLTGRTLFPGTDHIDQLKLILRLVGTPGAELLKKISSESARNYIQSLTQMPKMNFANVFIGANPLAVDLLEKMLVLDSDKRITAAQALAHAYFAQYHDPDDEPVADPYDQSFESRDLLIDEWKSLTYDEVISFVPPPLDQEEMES
UniProt P07949, 29-1114, species assumed: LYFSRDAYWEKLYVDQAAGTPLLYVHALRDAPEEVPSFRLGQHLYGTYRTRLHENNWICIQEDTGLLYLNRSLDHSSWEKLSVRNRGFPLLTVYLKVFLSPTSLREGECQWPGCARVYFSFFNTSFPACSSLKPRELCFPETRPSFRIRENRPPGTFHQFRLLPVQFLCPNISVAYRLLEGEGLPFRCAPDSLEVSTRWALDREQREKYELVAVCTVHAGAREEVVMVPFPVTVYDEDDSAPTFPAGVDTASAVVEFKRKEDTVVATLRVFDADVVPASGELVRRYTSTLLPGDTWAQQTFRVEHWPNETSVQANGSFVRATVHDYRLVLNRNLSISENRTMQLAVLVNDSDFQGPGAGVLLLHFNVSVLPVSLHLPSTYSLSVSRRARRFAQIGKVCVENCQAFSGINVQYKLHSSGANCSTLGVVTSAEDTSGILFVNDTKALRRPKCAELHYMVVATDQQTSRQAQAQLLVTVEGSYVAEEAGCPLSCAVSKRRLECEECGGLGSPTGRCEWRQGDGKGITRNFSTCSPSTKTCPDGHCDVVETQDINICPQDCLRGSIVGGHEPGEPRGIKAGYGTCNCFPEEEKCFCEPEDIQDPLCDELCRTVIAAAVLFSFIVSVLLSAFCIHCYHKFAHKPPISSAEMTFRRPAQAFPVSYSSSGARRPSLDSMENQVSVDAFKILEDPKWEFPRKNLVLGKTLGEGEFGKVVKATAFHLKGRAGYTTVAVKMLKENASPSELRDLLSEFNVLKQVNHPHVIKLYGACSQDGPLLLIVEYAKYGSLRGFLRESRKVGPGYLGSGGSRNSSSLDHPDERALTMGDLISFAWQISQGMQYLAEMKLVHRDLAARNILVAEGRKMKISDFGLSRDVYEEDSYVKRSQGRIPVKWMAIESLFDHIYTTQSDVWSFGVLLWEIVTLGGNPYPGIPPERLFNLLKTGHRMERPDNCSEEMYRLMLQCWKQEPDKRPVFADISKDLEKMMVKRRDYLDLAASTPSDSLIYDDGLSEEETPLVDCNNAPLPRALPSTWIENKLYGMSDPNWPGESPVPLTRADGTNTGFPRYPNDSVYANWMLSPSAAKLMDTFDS
UniProt P30530, 26-894, species assumed: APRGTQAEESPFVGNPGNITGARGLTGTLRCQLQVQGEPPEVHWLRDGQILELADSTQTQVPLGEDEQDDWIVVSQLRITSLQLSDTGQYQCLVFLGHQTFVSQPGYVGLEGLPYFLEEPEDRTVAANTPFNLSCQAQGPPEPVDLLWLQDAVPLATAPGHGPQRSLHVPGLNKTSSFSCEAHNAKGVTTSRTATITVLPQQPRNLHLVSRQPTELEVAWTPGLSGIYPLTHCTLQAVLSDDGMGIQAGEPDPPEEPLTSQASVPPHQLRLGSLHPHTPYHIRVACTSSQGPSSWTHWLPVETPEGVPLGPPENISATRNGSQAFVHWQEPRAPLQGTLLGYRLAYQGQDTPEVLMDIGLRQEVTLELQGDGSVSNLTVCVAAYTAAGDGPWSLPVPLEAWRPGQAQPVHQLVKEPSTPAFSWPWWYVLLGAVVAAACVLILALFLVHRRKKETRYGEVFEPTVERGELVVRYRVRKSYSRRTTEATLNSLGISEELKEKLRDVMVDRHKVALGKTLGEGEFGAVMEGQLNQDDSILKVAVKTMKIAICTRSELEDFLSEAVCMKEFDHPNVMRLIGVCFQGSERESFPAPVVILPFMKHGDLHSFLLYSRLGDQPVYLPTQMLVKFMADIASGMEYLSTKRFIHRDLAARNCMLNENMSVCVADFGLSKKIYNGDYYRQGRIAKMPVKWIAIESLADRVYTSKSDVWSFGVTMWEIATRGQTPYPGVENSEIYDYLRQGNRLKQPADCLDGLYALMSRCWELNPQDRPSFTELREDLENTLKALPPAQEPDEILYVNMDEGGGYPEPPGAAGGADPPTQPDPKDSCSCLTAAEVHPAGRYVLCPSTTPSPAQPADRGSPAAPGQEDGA
UniProt Q96GD4, whole entry, species assumed: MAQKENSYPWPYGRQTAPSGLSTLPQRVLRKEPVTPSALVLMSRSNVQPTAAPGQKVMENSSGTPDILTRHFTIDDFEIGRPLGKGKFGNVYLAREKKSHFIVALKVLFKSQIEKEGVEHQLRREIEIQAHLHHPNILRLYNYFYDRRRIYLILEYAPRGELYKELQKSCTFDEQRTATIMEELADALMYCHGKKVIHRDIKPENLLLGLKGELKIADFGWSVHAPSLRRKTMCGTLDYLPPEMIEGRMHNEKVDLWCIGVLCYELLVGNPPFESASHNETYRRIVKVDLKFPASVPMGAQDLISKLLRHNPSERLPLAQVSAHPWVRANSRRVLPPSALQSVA

Assays:
Conditions in all cases: cited from earlier work
[1] = biological target: PIK3Cα/PIK3R1 (Homo sapiens, UniProt P42336)
[2] = biological target: PIK3Cδ/PIK3R1 (Homo sapiens, UniProt O00329)
[3] = biological target: T1, AurA (AURKA) (Homo sapiens, UniProt O14965)
T1 sequence (O14965 1-403): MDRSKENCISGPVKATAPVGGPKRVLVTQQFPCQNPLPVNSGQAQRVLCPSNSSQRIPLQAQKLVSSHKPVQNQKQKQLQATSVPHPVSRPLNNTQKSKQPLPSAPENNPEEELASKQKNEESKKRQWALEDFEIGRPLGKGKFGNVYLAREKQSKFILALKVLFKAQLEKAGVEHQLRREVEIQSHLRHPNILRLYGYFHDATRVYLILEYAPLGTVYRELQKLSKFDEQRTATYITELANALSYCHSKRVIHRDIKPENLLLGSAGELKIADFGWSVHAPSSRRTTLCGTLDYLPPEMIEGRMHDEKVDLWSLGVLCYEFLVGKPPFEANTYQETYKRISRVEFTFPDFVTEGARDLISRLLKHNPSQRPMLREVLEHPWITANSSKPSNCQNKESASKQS

[4] = biological target: p38α (MAPK14)^b (Homo sapiens, UniProt Q16539)
[5] = biological target: p38α (MAPK14) (Homo sapiens, UniProt Q16539)
[6] = biological target: RET (Homo sapiens, UniProt P07949)
[7] = biological target: AXL (Homo sapiens, UniProt P30530)
[8] = biological target: AurB (AURKB) (Homo sapiens, UniProt Q96GD4)

CS(=O)(=O)N1CCN(Cc2cc3nc(-c4cccc5[nH]ncc45)nc(N4CCOCC4)c3s2)CC1 [Pictilisib]
ka [1]: 4.09e+06 M⁻¹ s⁻¹ | ka [2]: 4.02e+06 M⁻¹ s⁻¹

O=C(O)c1ccc(Nc2ncc3c(n2)-c2ccc(Cl)cc2C(c2c(F)cccc2F)=NC3)cc1 [MLN8054]
ka [3]: 3.06e+06 M⁻¹ s⁻¹ | log(ka) [3]: 6.49

CNC(=O)c1cc(Oc2ccc(NC(=O)Nc3ccc(Cl)c(C(F)(F)F)c3)cc2)ccn1 [Sorafenib]
ka [4]: 19200 M⁻¹ s⁻¹ | ka [5]: 17500 M⁻¹ s⁻¹ | log(ka) [5]: 4.24 | ka [6]: 25500 M⁻¹ s⁻¹ | log(ka) [6]: 4.41

C[C@@H](Oc1cc(-c2cnn(C3CCNCC3)c2)cnc1N)c1c(Cl)ccc(F)c1Cl [Crizotinib]
ka [7]: 48200 M⁻¹ s⁻¹ | log(ka) [7]: 4.68

Cc1cc(Nc2cc(N3CCN(C)CC3)nc(Sc3ccc(NC(=O)C4CC4)cc3)n2)[nH]n1 [Tozasertib]
ka [8]: 31500 M⁻¹ s⁻¹
